Key:
Cytochrome P450 1A2 = Cytochrome P450 1A2 (Homo sapiens, UniProt P05177); conditions: bti-tn-5b1-4; also: in other assays of this panel Not Active means under 50% inhibition at 10 µM
Adenosine receptor A1 = Adenosine receptor A1 (Homo sapiens, UniProt P30542); type: cell membranes, Membrane; conditions: cho;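 also: radioligand binding assay at the adenosine A1 receptor, with DPCPX serving as the labelled ligand; in other assays of this panel Not Active means under 50% inhibition at 10 µM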
[1] = target: Sigma non-opioid intracellular receptor 1 (Homo sapiens, UniProt Q99720); experiment: DRUGMATRIX: Sigma1 radioligand binding (ligand: [3H] Haloperidol); type: cell membranes, Jurkat, Membrane; conditions: Not Active = under 50% inhibition at 10 µM
Estrogen receptor beta = Estrogen receptor beta (Homo sapiens, UniProt Q92731); conditions: sf9; also: in other assays of this panel Not Active means under 50% inhibition at 10 µM
[2] = target: Voltage-gated inwardly rectifying potassium channel KCNH2 (Homo sapiens, UniProt Q12809); conditions: hek293; also: in other assays of this panel Not Active means under 50% inhibition at 10 µM

Chains of the proteins cited; added tags and fusions are not shown. Lines headed by an entry give the natural chain unless they say otherwise; changes in a name come on top.
UniProt P05177, whole entry: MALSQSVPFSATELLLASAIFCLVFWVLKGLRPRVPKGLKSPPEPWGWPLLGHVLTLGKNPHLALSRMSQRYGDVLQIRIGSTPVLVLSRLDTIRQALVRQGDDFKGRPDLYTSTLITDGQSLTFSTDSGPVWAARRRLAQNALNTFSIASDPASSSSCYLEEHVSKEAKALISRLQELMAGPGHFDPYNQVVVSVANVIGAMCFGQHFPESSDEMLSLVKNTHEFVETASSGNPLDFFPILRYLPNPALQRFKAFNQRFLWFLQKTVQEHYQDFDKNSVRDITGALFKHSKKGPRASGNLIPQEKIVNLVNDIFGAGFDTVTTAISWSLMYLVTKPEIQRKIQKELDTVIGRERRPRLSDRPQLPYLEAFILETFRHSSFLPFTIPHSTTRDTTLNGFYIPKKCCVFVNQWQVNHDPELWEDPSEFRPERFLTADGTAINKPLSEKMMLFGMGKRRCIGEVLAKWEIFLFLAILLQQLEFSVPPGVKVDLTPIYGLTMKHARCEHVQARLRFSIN
UniProt P30542, whole entry: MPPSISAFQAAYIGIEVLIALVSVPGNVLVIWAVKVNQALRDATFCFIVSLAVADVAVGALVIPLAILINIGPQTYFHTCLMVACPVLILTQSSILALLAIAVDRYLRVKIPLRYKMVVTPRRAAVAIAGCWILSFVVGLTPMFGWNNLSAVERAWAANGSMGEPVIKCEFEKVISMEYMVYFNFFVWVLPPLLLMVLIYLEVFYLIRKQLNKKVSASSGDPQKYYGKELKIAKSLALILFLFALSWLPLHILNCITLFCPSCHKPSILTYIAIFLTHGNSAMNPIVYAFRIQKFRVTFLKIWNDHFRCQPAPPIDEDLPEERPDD
UniProt Q99720, whole entry: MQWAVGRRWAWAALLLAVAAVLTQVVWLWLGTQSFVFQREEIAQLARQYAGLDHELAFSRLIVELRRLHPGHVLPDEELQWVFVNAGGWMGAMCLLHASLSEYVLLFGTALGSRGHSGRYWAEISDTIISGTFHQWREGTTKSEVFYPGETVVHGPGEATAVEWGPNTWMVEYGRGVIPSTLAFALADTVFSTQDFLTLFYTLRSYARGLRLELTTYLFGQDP
UniProt Q92731, whole entry: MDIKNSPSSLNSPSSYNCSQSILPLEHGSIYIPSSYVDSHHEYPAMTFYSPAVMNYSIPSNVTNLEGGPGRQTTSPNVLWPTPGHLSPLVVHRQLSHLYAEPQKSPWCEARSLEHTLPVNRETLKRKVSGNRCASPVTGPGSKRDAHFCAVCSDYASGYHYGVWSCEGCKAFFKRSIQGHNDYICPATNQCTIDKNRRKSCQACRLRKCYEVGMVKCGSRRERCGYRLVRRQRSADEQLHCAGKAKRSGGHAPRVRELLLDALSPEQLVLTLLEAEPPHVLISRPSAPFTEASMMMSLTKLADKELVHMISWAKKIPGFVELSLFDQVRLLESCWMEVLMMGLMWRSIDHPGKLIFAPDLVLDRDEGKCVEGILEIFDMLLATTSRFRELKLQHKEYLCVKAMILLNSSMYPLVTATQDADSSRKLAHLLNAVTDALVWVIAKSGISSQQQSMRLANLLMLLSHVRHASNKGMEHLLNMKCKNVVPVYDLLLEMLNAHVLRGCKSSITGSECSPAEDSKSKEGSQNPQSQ
UniProt Q12809: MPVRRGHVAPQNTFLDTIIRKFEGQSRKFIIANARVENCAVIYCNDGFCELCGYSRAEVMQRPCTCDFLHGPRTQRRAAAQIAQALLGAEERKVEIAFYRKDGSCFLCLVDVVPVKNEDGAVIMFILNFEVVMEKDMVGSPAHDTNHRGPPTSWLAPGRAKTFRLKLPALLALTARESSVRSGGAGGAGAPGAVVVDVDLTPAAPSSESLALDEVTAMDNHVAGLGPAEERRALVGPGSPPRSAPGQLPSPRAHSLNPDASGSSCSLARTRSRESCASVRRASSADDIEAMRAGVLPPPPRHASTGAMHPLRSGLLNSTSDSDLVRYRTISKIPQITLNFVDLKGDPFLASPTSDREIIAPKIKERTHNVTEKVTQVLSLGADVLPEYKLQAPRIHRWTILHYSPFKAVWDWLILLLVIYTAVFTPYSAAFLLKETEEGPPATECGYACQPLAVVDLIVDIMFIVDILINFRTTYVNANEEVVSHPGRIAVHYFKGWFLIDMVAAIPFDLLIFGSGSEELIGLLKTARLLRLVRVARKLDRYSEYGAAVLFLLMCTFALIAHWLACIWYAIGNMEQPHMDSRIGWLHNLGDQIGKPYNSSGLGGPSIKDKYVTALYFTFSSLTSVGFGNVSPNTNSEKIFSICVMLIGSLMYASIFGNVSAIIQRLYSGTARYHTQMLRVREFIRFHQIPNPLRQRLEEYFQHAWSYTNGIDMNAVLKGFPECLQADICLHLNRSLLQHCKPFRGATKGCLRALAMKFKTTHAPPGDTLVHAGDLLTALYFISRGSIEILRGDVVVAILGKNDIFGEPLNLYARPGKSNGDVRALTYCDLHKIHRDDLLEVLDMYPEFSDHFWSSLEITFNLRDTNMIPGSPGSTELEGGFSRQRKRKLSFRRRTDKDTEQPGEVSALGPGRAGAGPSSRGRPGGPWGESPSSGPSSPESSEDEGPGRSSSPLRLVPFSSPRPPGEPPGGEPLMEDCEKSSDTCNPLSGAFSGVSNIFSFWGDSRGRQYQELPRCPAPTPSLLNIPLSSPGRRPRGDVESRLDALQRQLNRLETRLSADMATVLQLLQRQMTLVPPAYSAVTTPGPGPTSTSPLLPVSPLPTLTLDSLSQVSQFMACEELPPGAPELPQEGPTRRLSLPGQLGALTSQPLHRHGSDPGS

O=c1cc(-c2ccccc2)oc2c1ccc1ccccc12 [ALPHA-NAPHTHOFLAVONE]
Ki (Cytochrome P450 1A2): Note: corresponding IC50 reported as Active

Cn1c(=O)c2c(ncn2C)n(C)c1=O [CAFFEINE]
IC50 (Adenosine receptor A1): Not Active

CN(C)CCCN1c2ccccc2Sc2ccc(Cl)cc21 [CHLORPROMAZINE]
Ki [1]: 189 nM

C[C@]12CC[C@@H]3c4ccc(O)cc4CC[C@H]3[C@@H]1CC[C@@H]2O [ESTRADIOL]
IC50 (Estrogen receptor beta): Not Active

Nc1nnc(-c2cccc(Cl)c2Cl)c(N)n1 [LAMOTRIGINE]
IC50 [2]: Not Active
Ki [2]: Not Active

Source: ChEMBL document CHEMBL1909046, “DrugMatrix in vitro pharmacology data”
